This is an account of results in patent publication US12357619B2, “Noradrenergic and specific serotonergic anxiolytic and antidepressant, method for the production and use thereof” (ALLA CHEM, LLC, priority 2020, dated 2025).

Amino acid sequences for entries named in this document (tags omitted).
UniProt P35367, whole entry: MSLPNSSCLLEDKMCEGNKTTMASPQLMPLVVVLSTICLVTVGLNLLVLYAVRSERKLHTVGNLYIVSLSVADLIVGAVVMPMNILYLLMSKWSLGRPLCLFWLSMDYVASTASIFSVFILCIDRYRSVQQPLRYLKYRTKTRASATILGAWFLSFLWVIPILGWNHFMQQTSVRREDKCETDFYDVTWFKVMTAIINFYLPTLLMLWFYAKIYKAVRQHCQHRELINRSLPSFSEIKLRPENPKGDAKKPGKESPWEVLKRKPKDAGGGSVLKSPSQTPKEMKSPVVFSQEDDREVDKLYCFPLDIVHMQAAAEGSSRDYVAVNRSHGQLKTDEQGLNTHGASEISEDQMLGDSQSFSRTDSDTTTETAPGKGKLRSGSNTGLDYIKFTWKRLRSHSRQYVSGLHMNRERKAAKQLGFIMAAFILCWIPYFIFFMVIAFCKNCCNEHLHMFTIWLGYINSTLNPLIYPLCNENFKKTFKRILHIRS

The assay deals with Histamine H1 (Homo sapiens, UniProt P35367). Kind of assay: Receptor activities, Ki (Table 1). It is filed as binding.

By Ki is commonly meant the dissociation constant of the complex between target and ligand, obtained from inhibition or displacement.

On to `Cc1ccc2c(c1)c1c(n2CCc2ccccc2)CCN(C)C1.Cl` [A•HCl, 2,8-dimethyl-5-(2-phenylethyl)-2,3,4,5-tetrahydro-1H-pyrido[4,3-b]indole hydrochloride], for which the Ki was found to be 0.58 nM.
